{"sequences": {"note": "By UniProt entry, the sequences of proteins in these tests, tags left out. Where a name states a change or a piece, a line headed by the entry shows the natural chain unless it says otherwise.", "UniProt P53634": "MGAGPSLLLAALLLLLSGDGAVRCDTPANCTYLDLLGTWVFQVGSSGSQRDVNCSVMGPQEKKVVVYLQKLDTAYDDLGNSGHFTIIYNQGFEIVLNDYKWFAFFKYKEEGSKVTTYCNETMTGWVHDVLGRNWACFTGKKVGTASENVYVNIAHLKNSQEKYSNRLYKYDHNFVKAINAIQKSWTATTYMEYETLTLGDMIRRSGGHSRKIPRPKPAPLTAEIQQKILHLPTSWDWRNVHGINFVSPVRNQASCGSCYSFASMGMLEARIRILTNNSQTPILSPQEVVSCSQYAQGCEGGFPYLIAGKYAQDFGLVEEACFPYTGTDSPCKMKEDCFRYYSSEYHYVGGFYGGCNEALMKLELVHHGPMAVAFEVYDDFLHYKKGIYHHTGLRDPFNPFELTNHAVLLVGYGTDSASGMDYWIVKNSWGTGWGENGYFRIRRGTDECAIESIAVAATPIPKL"}, "source": "ChEMBL document CHEMBL6092168", "about": "“Identification of novel indolinone derivatives as CTSC inhibitors to treat inflammatory bowel disease by modulating inflammatory factors” (Eur J Med Chem, 2024)", "key": {"Dipeptidyl peptidase 1 [1]": {"biological_target": "T1, Dipeptidyl peptidase 1 (Homo sapiens, UniProt P53634)", "details": "U-937, dose 20.0 µM, time 1.0 hrs"}, "Dipeptidyl peptidase 1 [2]": {"biological_target": "T1, Dipeptidyl peptidase 1", "details": "U-937, dose 10.0 µM, time 1.0 hrs"}}}
{"smiles": "O=C1Nc2c(cccc2-c2ccc(NC3CCOCC3)cc2)/C1=C/c1ccnc2ccccc12", "values": [{"measurement": "deltaT", "setting": "Dipeptidyl peptidase 1 [1]", "result": 7, "unit": "°C"}, {"measurement": "deltaT", "setting": "Dipeptidyl peptidase 1 [2]", "result": 4, "unit": "°C"}]}
